Measured values taken from ChEMBL document CHEMBL4184231, “Selective inhibition of monoamine oxidase A by hispidol” (Bioorg Med Chem Lett, 2018).

Amino acid sequences for entries named in this document (tags omitted).
UniProt P27338, whole entry: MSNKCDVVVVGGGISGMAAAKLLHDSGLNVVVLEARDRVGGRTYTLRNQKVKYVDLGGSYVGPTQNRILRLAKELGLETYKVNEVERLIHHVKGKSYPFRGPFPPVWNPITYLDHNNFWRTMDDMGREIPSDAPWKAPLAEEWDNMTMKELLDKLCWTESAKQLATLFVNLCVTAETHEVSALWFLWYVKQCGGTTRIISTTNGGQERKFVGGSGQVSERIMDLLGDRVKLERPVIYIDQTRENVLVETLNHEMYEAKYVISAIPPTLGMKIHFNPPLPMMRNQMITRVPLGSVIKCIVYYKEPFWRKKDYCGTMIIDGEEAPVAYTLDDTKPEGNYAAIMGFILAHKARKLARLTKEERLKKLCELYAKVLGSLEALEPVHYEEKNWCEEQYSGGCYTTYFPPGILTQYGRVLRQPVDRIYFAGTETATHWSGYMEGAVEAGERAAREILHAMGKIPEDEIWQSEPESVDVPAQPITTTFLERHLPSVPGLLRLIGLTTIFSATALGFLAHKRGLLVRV

Target: Amine oxidase [flavin-containing] B (Homo sapiens, UniProt P27338)
Experiment: Inhibition of human recombinant MAOB assessed as residual enzyme activity at 2 time IC50 pre-incubated for 30 mins followed by 0.06 mM benzylamine substrate addition

C#CCN(C)Cc1ccccc1 [PARGYLINE]
Activity: 17.4%
